# Measurements: PMC3613864 (Cell, 2012)
# System: 6133/MPL cells
# Test: Drug treatment of mice transplanted with 6133/MPL cells
# Format: in vivo, C57Bl/6 mice
# Settings: 15 mg/kg oral gavage twice a day for 3 days, bone marrow
smiles,measurement,value
"COc1cc(Nc2ncc3c(n2)-c2ccc(Cl)cc2C(c2c(F)cccc2OC)=NC3)ccc1C(=O)O [MLN8237, Alisertib]",polyploidization of 6133/MPL cells in vivo,induced polyploidization of the malignant cells in vivo
